Laboratory results taken from patent US9067896B2, “Crystalline forms of 3-(2,6-dichloro-3,5-dimethoxy-phenyl)-1-{6-[4-(4-ethyl-piperazin-1-yl) -phenylamino]-pyrimidin-4-yl}-1-methyl-urea and salts thereof” (Novartis AG, priority 2009, dated 2015).

Assay: Determination of solubility (equilibration in solvent, filtrate by HPLC)
Format: physicochemical
Conditions: initial solubility test
Method: Excess free base (free base of Formula I), its phosphate salt (the monophosphoric acid salt of the free base), or another acid salt was equilibrated in solvents for 1 day at 25±0.5° C. The resultant slurry was filtered and the filtrate used for solubility determination by HPLC.
Solubility of the monohydrate of the anhydrous and monohydrate free base was measured in various aqueous media (e.g., pH 6.8 buffer, pH 4.5 buffer, pH 1 buffer), including simulated and actual human fluids.
The human fluids were collected from 12 human subjects.
Solubility studies of the phosphate salt were undertaken in aqueous media and in human fluids at 24 hours.

Solubility (Water): 920 µg/mL | Solubility (pH3 Buffer): 3 µg/mL
Substance: Malonate
